# Test results as given in patent US20230138177A1 (priority 2020, published 2023).
# Protein sequences, listed by entry. Tags and fused reporters are not part of them.
# UniProt Q9Y463, whole entry: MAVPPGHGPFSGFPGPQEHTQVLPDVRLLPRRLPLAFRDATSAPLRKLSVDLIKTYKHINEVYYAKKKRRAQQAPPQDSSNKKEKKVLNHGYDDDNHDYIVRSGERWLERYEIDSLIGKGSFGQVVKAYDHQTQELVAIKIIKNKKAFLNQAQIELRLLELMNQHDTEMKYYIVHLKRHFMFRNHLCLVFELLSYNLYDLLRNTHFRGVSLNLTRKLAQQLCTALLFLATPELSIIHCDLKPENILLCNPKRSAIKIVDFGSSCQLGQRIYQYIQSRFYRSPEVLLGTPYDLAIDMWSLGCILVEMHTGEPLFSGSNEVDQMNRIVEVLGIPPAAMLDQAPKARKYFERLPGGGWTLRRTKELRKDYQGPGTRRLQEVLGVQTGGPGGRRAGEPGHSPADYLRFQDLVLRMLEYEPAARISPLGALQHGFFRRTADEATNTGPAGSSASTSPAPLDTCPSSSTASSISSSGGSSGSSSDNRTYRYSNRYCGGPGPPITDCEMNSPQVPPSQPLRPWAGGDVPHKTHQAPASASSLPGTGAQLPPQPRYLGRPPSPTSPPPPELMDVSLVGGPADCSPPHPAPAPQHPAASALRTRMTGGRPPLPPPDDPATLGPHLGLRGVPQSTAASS
# Experiments:
# DYRK1B [1] = target: T1, DYRK1B (Homo sapiens, UniProt Q9Y463); type: biochemical; parameters: expressed in transfected cells; host or cells: HEK293T or U87 cells; immunoprecipitate used in vitro; conditions: FLAG-DYRK1B from cells treated with harmine 10 μM or CX-4945 1 μM for 8 hours
# DYRK1B [2] = target: T1, DYRK1B; type: cell-based; parameters: expressed in transfected cells; host or cells: glioma cells (U87); conditions: glioma cells expressing wild type DYRK1B; harmine 10 μM, CX-4945 1 μM for 8 hours; DMOG 1 mM, CoCl2 150 μM for 12 hours
smiles,measurement,setting,value
O=C(O)c1ccc2c(c1)nc(Nc1cccc(Cl)c1)c1ccncc12 [CX-4945],phosphorylation of the ID2-T27 substrate,DYRK1B [1],severely impairing
same,prolyl hydroxylation of DYRK1B,DYRK1B [2],failed to perturb
same,tyrosine autophosphorylation of DYRK1B,DYRK1B [2],severely impairing
